In US20080070867A1, “2-Imidazolone and 2-Imidazolidinone Heterocyclic Inhibitors of Tyrosine Phosphatases” (Metabasis Therapeutics, Inc., priority 2005, published 2008) one finds IC50 data, which are given here for one compound.

The chains behind the UniProt entries cited, without tags or fusion partners. Residues count along the entry.
UniProt P18031, 1-321 limits assumed: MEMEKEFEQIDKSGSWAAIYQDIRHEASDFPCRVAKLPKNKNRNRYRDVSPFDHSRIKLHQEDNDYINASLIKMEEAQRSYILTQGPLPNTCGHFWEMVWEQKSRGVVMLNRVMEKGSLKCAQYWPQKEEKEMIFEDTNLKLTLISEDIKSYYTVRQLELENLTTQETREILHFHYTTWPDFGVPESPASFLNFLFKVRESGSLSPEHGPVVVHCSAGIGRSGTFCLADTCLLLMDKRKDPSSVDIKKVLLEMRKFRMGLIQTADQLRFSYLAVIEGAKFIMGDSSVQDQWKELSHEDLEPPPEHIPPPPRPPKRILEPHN

The experiment addresses Human recombinant PTP-1B (Homo sapiens, UniProt P18031). The experiment in a line: Assay for PTP-1B Activity (pNPP substrate). The note with it: read-out: Activity Code (IC50 range); human recombinant PTP-1B (1-321) GST fusion, 2 mM pNPP, pH 7.4, 30° C., 20 min. From the text: The activity of the compounds as modulators of protein tyrosine phosphatase, including PTP-1B, may be measured in standard assays (see, e.g., Examples 41 and 42). Briefly, the assay described herein employs human recombinant PTP-1B and a pNPP substrate in a rescue assay.
Assay for PTP-1B Activity
Enzyme: Human recombinant PTP-1B, containing amino acids 1-321, fused to GST enzyme (glutathione S-transferase) purified by affinity chromatography (Huyer et al, 1997, J. Biol. Chem., 272, 843-852).
pNPP: p-Nitrophenyl Phosphate (Calbiochem)
Assay Buffer: 50 mM HEPES (pH 7.4), 100 mM NaCl, 2 mM EDTA, 3 mM DTT
(5×) pNPP substrate: 10 mM pNPP in assay buffer
Enzyme: 1 mg/ml PTP1B (1-321), dilute 1:200 in assay buffer
Assay buffer: 50 mM HEPES (pH 7.4), 100 mM NaCl, 2 mM EDTA, 3 mM DTT
Enzyme dilution buffer: 50 mM HEPES (pH 7.4), 100 mM NaCl, 2 mM EDTA, 3 mM DTT
Substrate 198 mM p-Nitrophenyl Phosphate (pNPP) store at 4° C.
The assay was carried out at 30° C. in 96 well plates. The reaction mixture in 60 ul contained 50 mM HEPES (pH 7.4), 100 mM NaCl, 2 mM EDTA, 3 mM DTT, and 2 mM p-Nitrophenyl Phosphate (pNPP). 5 ul of the test compound (inhibitor) dissolved in DMSO or DMSO alone for control was added to each well and the plate was mixed for 2 min. […] The phosphatase activity was detected by using Victor II plate reader (Wallac) with absorbance detection at 405 nm. […]

Regarding `O=C(O)c1ccc(-c2cn(-c3ccccc3)c(=O)n2Cc2ccc(C(F)(F)P(=O)(O)O)c(Br)c2)cc1`, the IC50 is 250 to 2500 nM.

By IC50 is commonly meant the concentration at which inhibition is half-maximal.
